{"source": "patent US20230365568A1", "about": "“PLK1 POLO BOX DOMAIN INHIBITORS AND METHOD OF TREATING CANCER” (The United States of America,as represented by the …, priority 2020, published 2023)", "assay": "in vivo", "conditions": "male, C57BL/6, mouse, serum, ip, 20 mg/kg"}
{"smiles": "CCCn1c(=O)c2cccc(F)c2n2c(SC)nnc12", "note": "[compound 145, 9-fluoro-1-(methylthio)-4-propyl-[1,2,4]triazolo[4,3-a]quinazolin-5(4H)-one]", "values": [{"measurement": "half-life", "result": "51.3 ± 11.2", "unit": "min"}]}
